We go through one substance from patent US20240226319A1, “EGFR TARGETING FC ANTIGEN BINDING FRAGMENT-DRUG CONJUGATES” (MERCK PATENT GMBH, priority 2021, published 2024).

The experiment has as its target EGFR on EGFR positive human cancer cells (MDA-MB-468, A431) (human) (UniProt P00533). Kind of experiment: cell-based or functional assay.

In turn, C-Fab-MMAE registered an IC50, cell proliferation assay (Cell Titer Glo, 4 d), EGFR positive cells (MDA-MB-468, A431) of 0.78 to 0.99 nM.
